Assay results from patent US8173653B2, “Pyridiazinone derivatives for the treatment of tumours” (Merck Patent Gesellschaft MIT Beschraenkter Haftung, priority 2005, dated 2012).

System: TPR-Met/NIH3T3 cells
Test: In-vivo test: subcutaneous TPR-Met/NIH3T3 tumour in Balb/C mice, tumour volume
Details: female Balb/C mice, 200 mg/kg daily by gastric tube, 9 days

SMILES: CN(C)CCCOC(=O)Nc1cccc(Cn2nc(-c3cc(F)cc(F)c3)ccc2=O)c1 [A56, 3-Dimethylaminopropyl {3-[3-(3,5-difluorophenyl)-6-oxo-6H-pyridazin-1-ylmethyl]phenyl}carbamate]
- antitumoural action (tumour volume): significant antitumoural action
